Measured values from publication PMC2867455 (Journal of medicinal chemistry, 2010).

Target: T1, PFTase (Saccharomyces cerevisiae, UniProt P22007+P29703)
T1 sequence (P22007 1-431): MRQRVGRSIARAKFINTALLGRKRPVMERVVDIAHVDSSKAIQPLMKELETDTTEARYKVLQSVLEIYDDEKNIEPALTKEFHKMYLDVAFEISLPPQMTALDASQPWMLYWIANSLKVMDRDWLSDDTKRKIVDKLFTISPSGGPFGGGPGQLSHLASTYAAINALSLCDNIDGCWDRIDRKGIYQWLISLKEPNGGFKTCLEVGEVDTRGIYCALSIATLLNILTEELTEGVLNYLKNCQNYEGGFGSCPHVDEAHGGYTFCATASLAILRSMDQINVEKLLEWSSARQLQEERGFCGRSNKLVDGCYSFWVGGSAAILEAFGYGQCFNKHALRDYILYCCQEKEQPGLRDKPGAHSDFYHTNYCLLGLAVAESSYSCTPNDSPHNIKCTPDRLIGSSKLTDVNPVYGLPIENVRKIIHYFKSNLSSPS
T1 sequence (P29703 1-316): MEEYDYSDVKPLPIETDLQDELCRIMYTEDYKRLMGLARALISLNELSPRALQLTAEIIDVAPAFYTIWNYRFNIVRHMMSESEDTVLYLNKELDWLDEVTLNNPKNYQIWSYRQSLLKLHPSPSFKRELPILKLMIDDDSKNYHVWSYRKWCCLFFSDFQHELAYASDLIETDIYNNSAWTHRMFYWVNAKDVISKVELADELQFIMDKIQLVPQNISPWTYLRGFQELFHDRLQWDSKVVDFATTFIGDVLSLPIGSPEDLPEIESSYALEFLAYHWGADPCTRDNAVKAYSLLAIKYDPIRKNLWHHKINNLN
Assay: PFTase in vitro continuous-fluorescence assay
Type: biochemical

SMILES: Clc1ccc(COC(Cn2ccnc2)c2ccc(Cl)cc2Cl)cc1 (stereo not shown) [Econazole]
- PFTase inhibition (in words): appreciable inhibition
